Results: patent US20240343761A1, “APELINERGIC MACROCYCLES AND USES THEREOF” (priority 2021, published 2024)

Target: T1, human APJ (hAPJ) (Homo sapiens, UniProt P35414)
T1 construct: expressed in transfected cells; cell membranes
T1 sequence (P35414 1-380): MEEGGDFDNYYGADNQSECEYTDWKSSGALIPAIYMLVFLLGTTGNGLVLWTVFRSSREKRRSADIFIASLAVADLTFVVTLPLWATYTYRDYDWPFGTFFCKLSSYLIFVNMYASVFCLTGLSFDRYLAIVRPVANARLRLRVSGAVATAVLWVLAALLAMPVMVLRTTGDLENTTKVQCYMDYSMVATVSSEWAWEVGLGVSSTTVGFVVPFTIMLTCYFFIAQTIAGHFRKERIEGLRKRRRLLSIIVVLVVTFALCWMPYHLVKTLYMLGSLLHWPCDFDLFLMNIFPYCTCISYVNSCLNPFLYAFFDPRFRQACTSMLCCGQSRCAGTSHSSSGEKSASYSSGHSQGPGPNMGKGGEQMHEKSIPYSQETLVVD
Assay: Competitive radioligand binding ([125I][Nle75,Tyr77][Pyr1]-Ape13) on membranes of HEK293 cells stably expressing human APJ
Conditions: Table I; mean ± SEM
Experimental: HEK293 cells stably expressing YFP-tagged human APJ were cultured in DMEM medium supplemented with 10% FBS, at 37° C. under a humid atmosphere maintaining 5% CO2. Antibiotic G418 (400 μg/mL) was added to maintain a selection pressure for APJ-expressing cells while penicillin/streptomycin (0.1%) were used to prevent bacterial contamination.
Binding experiments were performed on cell membranes of HEK293 stably expressing the YFP-tagged human APJ receptor. Cells were frozen at −80° C. for storage and quickly thawed right before the experiments (1 min at 37° C.). […] The precipitate (cell membranes) was suspended in binding buffer (50 mM Tris-HCl, 0.2% BSA, pH 7.4). Binding assays were run in 96-well plates. […] (820 Ci/mmol)^3 and test ligand with a range of concentrations from 10^−1 to 10^−11 M in a total volume of 200 μL for 1 h at room temperature.
The incubation mixtures were filtered through a glass fiber filter (Millipore, pre-absorbed of PEI 0.5% for 2 h at 4° C.) to remove unbound ligands, and the filter membranes were washed three times with 170 μL cold binding buffer (4° C.). The γ emission was measured using a 1470 Wizard γ-counter from PerkinElmer (Waltham, USA) (80% efficiency).

CCCC[C@H](NC(=O)[C@@H]1CCCN1C(=O)CNC(=O)[C@H](CCCCN)NC(=O)[C@@H]1CC=CC[C@H](NC(=O)[C@H](CCCNC(=N)N)NC(=O)[C@@H]2CCC(=O)N2)C(=O)N[C@@H](CCCNC(=N)N)C(=O)N[C@@H](CC(C)C)C(=O)N[C@@H](CO)C(=O)N1)C(=O)N1CCC[C@H]1C(=O)N[C@@H](Cc1ccccc1)C(=O)O [Compound 97, Pyr-R-c[X-R-L-S-X]c-K-G-P-Nle-P-F, reference compound]
Ki: 3 ± 0.2 nM
